Results reported in patent US20250034112A1, “IMPROVED SELECTIVE JAK2 INHIBITORS AND METHODS OF USE” (Yale University, priority 2021, published 2025).

Protein sequences, listed by entry. Tags and fused reporters are not part of them. Residues count along the entry.
UniProt O60674, 536-812 W659A/W777A/F794H: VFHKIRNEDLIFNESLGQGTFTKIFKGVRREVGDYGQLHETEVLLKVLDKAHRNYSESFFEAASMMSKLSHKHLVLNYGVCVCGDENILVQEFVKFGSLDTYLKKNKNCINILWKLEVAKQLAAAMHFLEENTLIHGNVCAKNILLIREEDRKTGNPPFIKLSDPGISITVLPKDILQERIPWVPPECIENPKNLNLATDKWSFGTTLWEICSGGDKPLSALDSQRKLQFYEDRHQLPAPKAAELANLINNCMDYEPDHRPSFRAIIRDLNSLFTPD

target: WT JAK2 JH2 (Homo sapiens (Human), UniProt O60674, F794H/W659A/W777A); experiment: Competitive fluorescence polarization (FP) binding assay, WT JAK2 JH2

Question: How did the Kd turn out when `N#Cc1ccc(Nc2nc(N)nc(Oc3c(F)cccc3F)n2)cc1N` [Compound 33r] was run?
Answer: 123 ± 22 µM

Question: `COc1ccc(F)c(Oc2nc(N)nc(Nc3ccc(C#N)c(N)c3)n2)c1F` [Compound 33s] was tested. Which Kd did it give?
Answer: 54.7 ± 12.2 µM

Question: `N#Cc1ccc(Nc2nc(N)nc(Oc3ccc4[nH]ccc4c3)n2)cc1N` [Compound 33t] was tested. Which Kd did it give?
Answer: 23.2 ± 1.4 µM
